The text below walks through data of BindingDB's records for doi:10.1021/jm031026e (Universit&#224, 2004).

The experiment concerns the target Sigma non-opioid intracellular receptor 1 (Cavia porcellus) (UniProt Q60492). Briefly: In vitro binding affinity at opioid sigma-1 receptor in guinea pig brain membranes by (+)-[3H]pentazocine displacement.

Usually Ki stands for a measure of affinity in units of concentration, obtained from inhibition or displacement. Read a low Ki as a stronger hold on the target. The compound `COc1cccc2c1CCCC2CCCCN1CCN(C2CCCCC2)CC1` (configuration not stated) [1-cyclohexyl-4-(4-(5-methoxy-1,2,3,4-tetrahydronaphthalen-1-yl)butyl)piperazine] registered a Ki of 1.54 nM.
The compound `Oc1cccc2c1CCCC2CCCN1CCN(C2CCCCC2)CC1` (configuration not stated) [5-[3-(4-Cyclohexyl-piperazin-1-yl)-propyl]-5,6,7,8-tetrahydro-naphthalen-1-ol] came in with an inhibitory constant (Ki) of 5.4 nM.
